Here are results for 3 molecules from US11351178B2, “Selective HDAC6 inhibitors” (ITALFARMACO S.P.A., priority 2017, dated 2022).

Holding throughout (format): cell-based
Assay [1] relates to α-tubulin acetylation in 697 cell line. The assay is described as follows: In vitro α-tubulin acetylation in 697 cell line. Conditions: 16 hours, read-out: Tubulin acetylation (ratio of acetylated tubulin and total tubulin towards control); for fold induction at 0.037 µM: Conc 37 nM; for fold induction at 0.111 µM: Conc 111 nM; for fold induction at 0.333 µM: Conc 333 nM; for fold induction at 1 µM: Conc 1000 nM. How it is done: (§1) The in vitro α-tubulin and H3 histone acetylation determination was evaluated on B 697 […] cell line.
(§2) The test molecules were diluted from 20 mM stock solution in DMSO with RPMI 10% FCS+0.01% DMSO medium at 20× concentration compared to the final concentration, added to the cells (15×10^6 cells in a total volume of 30 ml in RPMI medium 10% FCS+0.01% DMSO) to obtain the final concentrations of 1000, 333, 111 and 37 nM and incubated at 37° C., 5% CO2 for 16 hours.
At the end of the incubation period, 5×10^6 cells were taken from each sample, centrifuged for 5 minutes at 1100 rpm and washed in 0.9% NaCl at 4° C. The resulting pellet was lysed by treating at 4° C. for 30 minutes with 150 μl of Complete Lysis-M (Roche, cat-04719956051) containing protease inhibitors and phosphatase (Complete Easy Pack proteinase inhibitor cocktail tablets cat: 04693116001, Phostop easypack phosphatase inhibitor cocktails, cat: 01906837001—Roche), then centrifuged 10 minutes at 14,000 rpm (20817×g). 0.150 μg of supernatant (total protein extract) were diluted in 100 μl of 1×PBS and immobilized in Maxisorp F96 NUN-IMMUNO Plate (Nunc cat #5442404) at room temperature overnight. Plates were washed twice with Wash Buffer (PBS1X+0.005% tween 20) and saturated for 1 hour at room temperature with 300 μL of 1×PBS containing 10 FCS. After washing with buffer (1×PBS containing 0.005% tween), the plates were incubated for two hours at room temperature in the presence of anti-acetylated-α-tubulin antibody (Monoclonal Anti-acetylated-tubulin clone 6-11B-1, mouse ascites fluid, cat #T6793 Sigma, 100 μl diluted 1:1000 in 1×PBS containing 10% FCS) or with total anti-α-tubulin antibody (Monoclonal Anti alpha-tubulin produced in mouse, cat #T6074 Sigma). After washing, 100 μl per well of TMB substrate kit was added for 10 minutes at room temperature in the dark. The reaction was stopped by adding 50 μl of 2N H2SO4. The plates were read at Multiskan Spectrum spectrophotometer at a wavelength of 450 nm.
The degree of acetylation was calculated by dividing the absorbance obtained for acetylated α-tubulin by the absorbance of total α-tubulin.
(§3) Test results of tubulin and H3 histone acetylation, expressed as fold increase of ratio of acetylated α-tubulin/total α-tubulin and H3Ac/H3Tot, respectively, of each sample relative to the control sample (untreated) are summarized in Tables 6 and 6′.

Assay [2] relates to H3 histone acetylation in 697 cell line. The assay is described as follows: In vitro H3 histone acetylation in 697 cell line. Conditions: 16 h, read-out: Acetylation of H3 histone (fold increase of acetylated H3/total H3 towards control); for fold induction at 0.111 µM: conc 111 nM; for fold induction at 0.333 µM: conc 333 nM; for fold induction at 1 µM: conc 1000 nM. The method, then: as §1, §2
The remaining cells (10×10^6) were treated by acid extraction of histones (Kazuhiro et al., PNAS (2002), 99 (13) 8921-8926). Cells were centrifuged 5 min at 1100 rpm at 4° C. and washed once in 0.9% NaCl. The resulting pellet was lysed with […] (10 mM Tris.HCl, pH 6.5/50 mM sodium bisulphite, 1% Triton X-100/10 mM MgCl2/8.6% saccharose containing the protease inhibitor mixture (Roche)) for 20 min at 4° C. The resulting nucleus pellet was repeatedly washed in buffer until supernatant clarification (centrifuged at 7,500×g, 5 minutes after each wash) and finally washed in nucleus buffer (10 mM Tris.HCl/13 mm EDTA, pH 7, 4) and resuspended in 250 μl of 0.2 M HCl/H2SO4. Histone proteins were extracted in an acidic environment by incubating overnight at 4° C. under gentle shaking. After centrifugation at 14,000 rpm at 4° C. for 10 minutes, 1250 μl of cold acetone was added to the supernatant and incubated overnight at −20° C., resulting in the precipitation of histone proteins. The pellet obtained after centrifugation for 10 minutes at 14000 rpm and 4° C. was washed with cold acetone, evaporated to dryness and resuspended in 50 μl distilled water. The protein content determination of both total and histone extracts was carried out by a colorimetric assay using a BCA Protein Assay Kit (Pierce cat: 23227).
H3 histone acetylation and total H3 amount were quantified by commercial ELISA assays PathScan acetylated histone H3 Sandwich Elisa kit, cat #7232C and PathScan total histone H3 Sandwich Elisa Kit, cat #7253C Cell Signaling) according to supplier reported method and by detecting absorbance at 450 nm wavelength using Multiskan Spectrum. ELISA tests were performed by analysing 0.250 μg and 0.500 μg of histone extract of each sample. The degree of acetylation was calculated by dividing H3 histone absorbance by histone total absorbance.
as §3

Assay [3] has as its system regulatory T cell (Treg, CD4+CD25+) suppression activity. The experiment in a line: T CD4 lymphocyte proliferation mediated by mouse regulatory T cells suppression assay. The method, then: To evaluate the ability of the molecules under this patent to increase regulatory T cell (Treg, CD4^+CD25^+) suppression activity a T-cell (responder T cells, Teff) proliferation suppression assay was used. Treg cells at different concentrations were cultured with Teff cells (CD4^+CD25^−) in the presence of proliferative stimuli. T cells need of two stimuli to proliferate: the first given by the recognition of antigen associated with MHC by T cell receptor (TCR) and the second one derived from co-stimulatory molecules such as CD28. In the absence of a specific antigen, TCR activation can take place with an antibody recognizing one of the composing subunits, CD3ε. In this assay, anti-CD3ε monoclonal antibody and CD4 T cell depleted splenocytes were used as activator stimuli. Therefore, the ability to reduce Teff cells proliferation by Tregs in the presence or absence of HDAC6 inhibitors was assessed.
Treg and Teff cells were separated using the Treg isolation kit based on magnetic beads separation technique (Miltenyi Biotec) through an initial negative selection and a final positive selection process.
Single cell suspension was obtained from spleen of C57BL/6 mice using a 70 μm strainer.
Cell suspension was treated with ACK buffer to lyse red blood cells and then centrifuged for 5 minutes at 300×g. After centrifugation, the cells were resuspended in PBS (Phosphate Buffered Saline, Gibco) and counted. Subsequently, splenocytes were resuspended in a buffer consisting of PBS, 0.5% BSA and 2 mM EDTA.
To proceed with the first step of Treg separation, CD4 negative cells were indirectly magnetically labeled with a cocktail of biotin-conjugated antibodies against CD8a, CD11b, CD45R, CD49b, Ter-119 and Anti-Biotin MicroBeads CD4+ cells were thus obtained by negative selection as flow-through of a magnetic MACS column.
Cells bound to microbeads were eluted and conserved for their use as antigen presenting cells (APC) in the proliferation assay.
In the second step of Treg purification, pre-enriched CD4+ cells were labelled with an R-phycoerythrin (PE)-conjugated anti-CD25 antibody that preferentially binds to Treg cells and magnetic beads coupled with an anti PE antibody. The cell suspension was then loaded on a column. The Teff cells pass through the column without binding (negative selection), while beads-bound Treg cells adhere through the magnetic beads (positive selection). Treg cells were then eluted from the column by buffer flow using a plunger. Treg and Teff cell purification is summarized in FIG. 6. • CD4− cells from first positive selection as APC • Treg CD4+ CD25+ as suppressor cells • Teff CD4+ CD25− as responder/proliferating cells
CD4^− cells were treated with mitomycin C (50 μg/ml, Sigma) for 30 min at 37° C. to prevent their proliferation They were then resuspended at a concentration of 4.0×10^5/50 μl in complete medium (RPMI, FBS10%, penicillin/streptomycin 1×, 50 μM beta mercaptoethanol). Teffs were labeled with carboxy fluorescein succinimidyl ester (CFSE) at a concentration of 2 μM in PBS at 37° C., and after 10 minutes incubation, the reaction was blocked with a 10% FBS PBS solution. CFSE labelling allows covalent modification of Teff cell to analyse their proliferation by fluorescence dilution. The labelled Teffs were then centrifuged and resuspended at the final concentration of 5.0×10^4/50 μl in complete medium. Finally, the Tregs obtained by purification were diluted to the final concentration of 5.0×10^4/50 μl in complete medium. […]

Consider `Cc1cc(-c2nnc(Sc3c(F)cc(C(=O)NO)cc3F)n2C)nn1C` [comp. 100, 4-[[5-(1,5-dimethylpyrazol-3-yl)-4-methyl-1,2,4-triazol-3-yl]sulfanyl]-3,5-difluoro-benzenecarbohydroxamic acid], for which, in assay [1], the fold induction at 0.037 µM was 2, the fold induction at 0.111 µM stood at 3, the fold induction at 0.333 µM stood at 9 and the fold induction at 1 µM amounted to 14. In addition, in assay [2], the fold induction at 0.111 µM was 1, the fold induction at 0.333 µM was found to be 3 and the fold induction at 1 µM was determined as 2.
On to `Cn1c(Sc2ccc(C(=O)NO)cc2)nnc1-c1cccs1` [comp. 10, N-hydroxy-4-((4-methyl-5-(thiophen-2-yl)-4H-1,2,4-triazol-3-yl)thio)benzamide], for which, in assay [1], the fold induction at 0.037 µM was 3, the fold induction at 0.111 µM came out at 7, the fold induction at 0.333 µM came to 13 and the fold induction at 1 µM turned out to be 16. Moreover, in assay [2], the fold induction at 0.111 µM was 1, the fold induction at 0.333 µM is 1 and the fold induction at 1 µM was determined as 2. Further, the “RS (relative T-reg suppression, AUC drug/AUC control)” value in assay [3] (concentration 0.5 μM) is 3.2. Besides, in assay [3] (concentration 0.75 μM), the “RS (relative T-reg suppression, AUC drug/AUC control)” value stood at 7.4. Besides, the “RS (relative T-reg suppression, AUC drug/AUC control)” value in assay [3] (concentration 1 μM) is 5.2.
As for `Cn1c(Sc2c(F)cc(C(=O)NO)cc2F)nnc1-c1cccs1` [comp. 17, 3,5-difluoro-N-hydroxy-4-((4-methyl-5-(thiophen-2-yl)-4H-1,2,4-triazol-3-yl)thio)benzamide], in assay [1], the fold induction at 0.037 µM came to 3, the fold induction at 0.111 µM was determined as 8, the fold induction at 0.333 µM was 9 and the fold induction at 1 µM worked out at 10. Also, in assay [2], the fold induction at 0.111 µM amounted to 2, the fold induction at 0.333 µM is 1 and the fold induction at 1 µM turned out to be 2. The “RS (relative T-reg suppression, AUC drug/AUC control)” value in assay [3] (concentration 0.5 μM) is given as 1.7. Besides, the “RS (relative T-reg suppression, AUC drug/AUC control)” value in assay [3] (concentration 1 μM) was found to be 1.9.
